{"source": "patent US5932244A", "about": "“Liposomal human calcitonin gene-related peptide composition and preparation of the same” (priority 1996, dated 1999)", "key": {"ocular vessels": {"tested_on": "ocular vessels", "assay": "vasodilatory activity: diameters of ocular vessels of anesthetized rabbits after dropping sample into the eye", "format": "in vivo, New Zealand white rabbits", "details": "for vasodilation (diameter %): individual experiments 1-5; for vasodilation (diameter %), mean: n=5"}, "[1]": {"assay": "Sephadex G-50 fine gel filtration of free and liposome-bound hCGRP", "format": "physicochemical", "experimental": "Methods: Liposomal hCGRP and free hCGRP were analyzied by the method of Berk [Berk D. and Marcinka K., Gel Chromatography in Separation Methods. Deylz ed. 1984, 271]. hCGRP samples reconstituted with or without soybean phospholipid (1.0 ml in 0.1M Tris-HCl, pH8.8) were applied to a 1.5×46 cm sephdex G-50 fine column in 0.1M Tris-HCl, pH8.8. Blue dextran 2000 (Pharmacia) and ^32 PO4 (England) were mixed with separated sample as mark of Vo and Vi respectively.\nMethods: During storage period of the reconstituted liposome after being sterilized at 100° C. for 30 min, free hCGRP, dissociated from the liposome, was determined by gel filtration at the interval of 3 months. The absorption at UV 206 nm of hCGRP has been correlated with 0.52 of the distribution coefficient (Kd) in correction of hCGRP standard. At this Kd value, we can investigate whether hCGRP is dissociated from the reconstituted liposome during storage period. Sephadex G-50 fine gel filtration was carried out, every datum is mean±SD of 3 indepentent operations."}, "[2]": {"assay": "storage time in aqueous solution", "format": "physicochemical"}, "congestive heart failure": {"tested_on": "congestive heart failure", "details": "cited from earlier work"}, "[3]": {"details": "in vivo; cited from earlier work"}, "[4]": {"details": "incubated in human plasma, 37° C., hour 0"}, "[5]": {"details": "incubated in human plasma, 37° C., hour 12"}, "[6]": {"details": "incubated in human plasma, 37° C., hour 24"}, "[7]": {"details": "incubated in human plasma, 37° C., hour 48"}}, "note": "Values joined by “and” are separate entries in the source; they are usually repeats but may differ in a detail not shown here. Equal values may be shown once."}
{"substance": "Human α-type calcitonin gene-related peptide [hCGRP]", "values": [{"measurement": "vasodilation (diameter %)", "setting": "ocular vessels; [4]", "result": "+213% and +191% and +187% and +194% and +188%"}, {"measurement": "vasodilation (diameter %), mean", "setting": "ocular vessels; [4]", "result": "+195%"}, {"measurement": "vasodilation (diameter %), mean", "setting": "ocular vessels; incubated in human plasma, 37° C., hour 0, listed as free hCGRP", "result": "+195±16.49%"}, {"measurement": "vasodilation (diameter %)", "setting": "ocular vessels; [5]", "result": "+102% and +93% and +114% and +90% and +87%"}, {"measurement": "vasodilation (diameter %), mean", "setting": "ocular vessels; [5]", "result": "+97%"}, {"measurement": "vasodilation (diameter %)", "setting": "ocular vessels; [6]", "result": "+52% and +49% and +79% and +82% and +51%"}, {"measurement": "vasodilation (diameter %), mean", "setting": "ocular vessels; [6]", "result": "+63%"}, {"measurement": "vasodilation (diameter %)", "setting": "ocular vessels; [7]", "result": "+29% and +33% and +22% and +19% and +24%"}, {"measurement": "vasodilation (diameter %), mean", "setting": "ocular vessels; [7]", "result": "+25%"}, {"measurement": "vasodilation (diameter %), mean", "setting": "ocular vessels; incubated in human plasma, 37° C., hour 48, listed as free hCGRP", "result": "+25±6.8%"}, {"measurement": "vasodilation (diameter %)", "setting": "ocular vessels; stored in H2O, 25° C., day 0", "result": "+189% and +191% and +181% and +192% and +179%"}, {"measurement": "vasodilation (diameter %), mean", "setting": "ocular vessels; stored in H2O, 25° C., day 0", "result": "+187%"}, {"measurement": "vasodilation (diameter %), mean", "setting": "ocular vessels; stored in H2O, 25° C., day 0, listed as free hCGRP", "result": "+187±8.9%"}, {"measurement": "vasodilation (diameter %)", "setting": "ocular vessels; stored in H2O, 25° C., day 30", "result": "+142% and +133% and +152% and +161% and +165%"}, {"measurement": "vasodilation (diameter %), mean", "setting": "ocular vessels; stored in H2O, 25° C., day 30", "result": "+151%"}, {"measurement": "vasodilation (diameter %)", "setting": "ocular vessels; stored in H2O, 25° C., day 60", "result": "+94% and +99% and +84% and +114%"}, {"measurement": "vasodilation (diameter %), mean", "setting": "ocular vessels; stored in H2O, 25° C., day 60", "result": "+98%"}, {"measurement": "vasodilation (diameter %)", "setting": "ocular vessels; stored in H2O, 25° C., day 90", "result": "+82% and +79% and +63% and +88% and +102%"}, {"measurement": "vasodilation (diameter %), mean", "setting": "ocular vessels; stored in H2O, 25° C., day 90", "result": "+83%"}, {"measurement": "vasodilation (diameter %), mean", "setting": "ocular vessels; stored in H2O, 25° C., day 90, listed as free hCGRP", "result": "+83±12.4%"}, {"measurement": "reconstitution efficiency of hCGRP in membrane (% at Kd 0.04)", "setting": "[1]; gel filtration peak at Kd 0.04", "result": 0, "unit": "%"}, {"measurement": "% of hCGRP at Kd 0.52 (free hCGRP)", "setting": "[1]; gel filtration peak at Kd 0.52", "result": 100, "unit": "%"}, {"measurement": "orginal storage time in aqueous solution", "setting": "[2]", "result": 15, "unit": "days"}, {"measurement": "systemic artery blood pressure decrease", "setting": "congestive heart failure; i.v. infusion 8.0 ng/kg/min for 8 h, 30 min after drug, p<0.05", "result": 18, "unit": "%"}, {"measurement": "hemodynamic effect", "setting": "congestive heart failure; intravenous infusion 8.0 ng/kg/min for 8 h", "result": "caused a decrease in the right arterial, pulmanary artery, pulmonary artery wedge and systemic arterial pressure"}, {"measurement": "half-life", "setting": "[3]", "result": "9 to 12", "unit": "min"}]}
